## Apparent affinities of Ab-95 variants for a coronavirus HR2 peptide

The target is the same throughout: PDVDLGDISGINAS, from the HR2 region of SARS-CoV-2 spike.

Each scFv is VH, the linker GGGGSGGGGSGGGGS, VL, as in the parent Ab-95, and differs from it in the CDRs of the light chain only.
VH: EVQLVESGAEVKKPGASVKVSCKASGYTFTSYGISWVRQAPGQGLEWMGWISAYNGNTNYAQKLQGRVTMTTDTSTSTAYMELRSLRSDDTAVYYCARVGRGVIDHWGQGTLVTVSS
VL: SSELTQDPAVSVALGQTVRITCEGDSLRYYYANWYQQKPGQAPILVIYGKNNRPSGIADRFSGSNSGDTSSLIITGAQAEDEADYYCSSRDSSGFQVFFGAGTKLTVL

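Phage display of a naive human antibody library on the peptide gave the parent. The library (AAYL52) carries one to three amino acid substitutions per variant, with no insertions or deletions. The assay is AlphaSeq: two haploid yeast populations carry antibody and antigen on their surface. Binding brings cells together so that they mate, and sequencing counts the barcode pairs among the diploids. Scores were corrected for input abundance and mapped to Kd with protein pairs of known affinity run in the same pool. The assay was run in three technical replicates.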

Changes read parent residue, position, new residue, counted from the first residue of the VL shown. All variants listed here change F98 of the VL, counted from its first residue. Numbers give log10(Kd / nM), so 0 is 1 nM and 3 is 1 µM. Smaller is tighter. "nd" marks a missing value. The strain was present, yet no cells mated with the target were sequenced in that replicate, which points to weak or no binding.

- N51I R53I F98K -> nd, nd, nd
- D25Q N52Q F98P -> 2.25, 2.13, 2.02
- P54N S88P F98Y -> nd, nd, nd
- K50Y N52P F98K -> nd, nd, nd
- G24Y S92H F98D -> nd, nd, nd
- Y31M S92V F98G -> 1.97, 2.07, 1.25
- D25P K50R F98L -> 2.49, 2.21, 2.23
- E23S S55M F98M -> 2.72, 2.78, 1.76
- Y29T S89T F98N -> 3.14, 2.42, nd
- E23V F98I -> 2.68, 2.36, 2.43
- R28P S92P F98Y -> 1.65, 1.77, 1.09
- S92G V97E F98C -> 4.51, 4.08, 4.37
- G24Q G49N F98V -> nd, nd, nd
- R90H S93F F98C -> 2.98, 2.78, nd
- G49D N51F F98A -> 3.29, 3.84, nd
- F98L -> 1.87, 1.84, 1.35
- S55R F98Y -> 2.56, 2.32, 2.38
- R53T P54V F98N -> 2.75, 2.23, 2.47
- Y30N N51R F98D -> 2.33, 1.77, 1.77
- R28A S88E F98R -> 3.78, 2.90, 2.32
- D91N V97Y F98C -> 2.54, 2.63, 1.69
- N51V F95C F98S -> nd, nd, nd
- Y31A V97Q F98A -> nd, nd, nd
- Y29I S88K F98A -> nd, 2.88, 3.65
- R90C S92Y F98S -> 4.19, 2.84, nd
- K50W S88E F98V -> nd, nd, nd
- Y30W G49Q F98A -> 2.43, 3.08, 3.28
- Y30A Y31T F98G -> 1.74, 1.61, 1.19
- L27C R28L F98N -> nd, nd, 4.40
- L27Y R28D F98W -> nd, 3.92, nd
- K50Y R53N F98D -> 3.72, 3.81, 4.10
- S88K S93T F98K -> nd, nd, nd
- Y30K F95I F98R -> 1.77, 1.83, 1.66
- N51K F95I F98A -> 2.71, nd, 1.77
- S89F S93H F98G -> 2.53, 1.84, 1.29
- K50W N52Y F98Y -> nd, nd, nd
- N51K G94T F98A -> nd, 2.75, nd
- Y29H N33W F98A -> nd, nd, nd
- N33K S92I F98P -> nd, 4.83, nd
- E23C R28F F98L -> 5.66, nd, nd
- F98H -> 2.74, 2.86, 2.72
- Y29Q N51A F98A -> 3.39, 3.00, 2.93
- Y31F S92Y F98L -> 3.08, 3.14, 3.46
- E23F V97H F98W -> 2.60, 3.38, 2.65
- E23G Y31D F98G -> 1.50, 1.22, 0.56
- V97D F98R -> 2.04, 1.94, 1.53
- S26L Y30G F98C -> 3.17, 2.81, 2.69
- R53P G94H F98K -> nd, 4.90, nd
- D25S R28S F98L -> 2.62, 2.81, 1.91
- D91F F98T -> 2.90, 3.58, nd
- R90T Q96C F98M -> 4.55, nd, nd
- L27V P54Y F98H -> nd, nd, 3.93

Top 4 of the variants detected in all replicates, tightest first:

changes,"replicates, log10 nM"
E23G Y31D F98G,"1.50, 1.22, 0.56"
R28P S92P F98Y,"1.65, 1.77, 1.09"
Y30A Y31T F98G,"1.74, 1.61, 1.19"
F98L,"1.87, 1.84, 1.35"

Empty control strains, which show no peptide, gave a signal in 28% of pairings with library AAYL52; the median was 3.91 and 95% of these signals were weaker than 2.90. No background was subtracted. In this assay the parent's reference entry averaged 2.31; its copy inside this library read 2.25.

Data: MIT Lincoln Laboratory AlphaSeq set, Engelhart et al. 2022, doi:10.1038/s41597-022-01779-4, as distributed in FLAb.